Values of other authors in publication PMC9212491 (Antiviral Research, 2022).

System: JAK1
Details: ref Stebbing et al.,2021; Klaeger et al.,2017; cited from earlier work

CCS(=O)(=O)N1CC(CC#N)(n2cc(-c3ncnc4[nH]ccc34)cn2)C1 [Baricitinib, baricitinib]
JAK1 (Other targets, measure not stated): 5.9 nM
